Our source for the Operating DBC, DBC @ 10% BT and Measured DBC (dynamic binding capacity) values is patent publication US20180009876A1.

The target of test [1] is MABSELECT SURE® Protein A media. The experiment in a line: operating dynamic binding capacity; 20 mM sodium phosphate pH 7.2, 0 mM NaCl; residence time 4 min, 300 cm/h.
Test [2] has the same target. The experiment in a line: operating dynamic binding capacity; 20 mM sodium phosphate pH 7.2, 50 mM NaCl; residence time 4 min, 300 cm/h.
Test [3] has the same target. The experiment in a line: operating dynamic binding capacity; 20 mM sodium phosphate pH 7.2, 100 mM NaCl; residence time 4 min, 300 cm/h.
Test [4] has the same target. Description: operating dynamic binding capacity; 20 mM sodium phosphate pH 7.2, 150 mM NaCl; residence time 4 min, 300 cm/h.
For test [5] the target is unchanged. The experiment in a line: dynamic binding capacity at 10% breakthrough; 20 mM sodium phosphate pH 7.2, 0 mM NaCl; residence time 4 min, 300 cm/h.
Test [6] shares this target. Description: Protein A resin screen, column loading of adalimumab; 20 mM sodium phosphate, 150 mM NaCl, pH 7.2; residence time 2 min.
For test [7], the target named is PROSEP® Ultra Plus Protein A media. The description is as above.
The target in test [8] is UNOsphere SUPrA™ media. The test is described as above.
For test [9], the target named is MABSELECT SURE® Protein A media. Description: dynamic binding capacity at 10% breakthrough; 20 mM sodium phosphate pH 7.2, 50 mM NaCl; residence time 4 min, 300 cm/h.
Test [10] has the same target. The experiment in a line: dynamic binding capacity at 10% breakthrough; 20 mM sodium phosphate pH 7.2, 100 mM NaCl; residence time 4 min, 300 cm/h.
Test [11] shares this target. Description: dynamic binding capacity at 10% breakthrough; 20 mM sodium phosphate pH 7.2, 150 mM NaCl; residence time 4 min, 300 cm/h.
Test [12] addresses ABSOLUTe® High Cap Protein A media. The experiment in a line: Protein A resin screen, column loading of adalimumab; 20 mM sodium phosphate, 150 mM NaCl, pH 7.2; table notes residence time τ = 3 min.

Turning to adalimumab (antibody), the Operating DBC in [1] was determined as 60.6 g/L; in test [2], 59 g/L; in test [3] it was 54.9 g/L; in [4], 43.6 g/L. The DBC @ 10% BT in [5] is 51.5 g/L; in [9], 50 g/L; in test [10], 46.7 g/L; in test [11] it was 37.1 g/L. Also, the Measured DBC (dynamic binding capacity) came out at 35 g/L in test [6], 39 g/L in test [7], 28 g/L in test [8] and 58 g/L in test [12].
